Measurements: US20220175768A1, “FGFR TYROSINE KINASE INHIBITORS FOR THE TREATMENT OF UROTHELIAL CARCINOMA” (Janssen Pharmaceutica NV, priority 2019, published 2022)

Conditions: 8 mg Continuous, Regimen 3 (n = 99)

COc1cc(OC)cc(N(CCNC(C)C)c2ccc3ncc(-c4cnn(C)c4)nc3c2)c1 [erdafitinib, N-(3,5-dimethoxy-phenyl)-N′-(1-methylethyl)-N-[3-(1-methyl-1H-pyrazol-4-yl)quinoxalin-6-yl]ethane-1,2-diamine]
Serious treatment-emergent adverse event: Musculoskeletal and connective tissue disorders: 0 no.
